This is a selection; strong and weak results do not stand in their true shares. Results filed as inconclusive are left out. The source made the active and inactive calls. Calls come from the whole dose curve; as a rule, active = well fitted activation curve with a large enough effect; inconclusive = small, poorly fitted or top-dose-only effect; inactive = no such curve, though single readings can be large or run the other way.
Test: qHTS Assay for Rab9 Promoter Activators; note: % of control where 0% means no effect; nearly all actives have a fitted effect of over 60% in size
Details: Huh7 Rab9 promoter-luciferase reporter, luminescence, 24 h
[1] = at 9.22 µM (top of the series) unless noted

For `O=C(COc1ccccc1)OC1CN2CCC1CC2` (centres undefined), the activation, negative = inhibition [1] was inactive: 1.26%.

In the case of `COP1(=S)c2c(C)nn(CCC#N)c2N=C(c2ccc(F)cc2)N1C` (centres undefined), the activation, negative = inhibition [1] is reported as inactive: -2.49%.

In the case of `CCC(C)N(CC(C)C)C(=S)SC(NC(C)=O)C(Cl)(Cl)Cl` (centres undefined), the activation, negative = inhibition [1] is reported as inactive: 0.343%.

In the case of `O=C(OC1CN2CCC1CC2)c1cccc([N+](=O)[O-])c1` (centres undefined), the activation, negative = inhibition [1] is reported as inactive: 5.83%.

In the case of `CC(C)(C)C(=O)NC(Sc1ncccn1)C(Cl)(Cl)Cl` (centres undefined), the activation, negative = inhibition [1] is reported as inactive: -4.2%.

For `Clc1n[nH]nc1-c1nn[nH][15n]1`, the activation, negative = inhibition [1] was inactive: 12.7%.

With `CCOP(=O)(Nc1ccc(C)cn1)OCC` the activation, negative = inhibition [1] was inactive: 7.3%.

In the case of `CN(CCCl)Cc1cc(Cl)c(NC2=NCCN2)c(Cl)c1`, the activation, negative = inhibition [1] is reported as inactive: -3.02% [at 46.1 µM].

In the case of `CCOP(=O)(NC(=NC(C)c1ccccc1)NC(C)c1ccccc1)OCC` (centres undefined), the activation, negative = inhibition [1] is reported as inactive: 6.64%.

In the case of `CCC1=CC2Cc3nc4ccc(Cl)cc4c(N)c3C(C1)C2` (centres undefined), the activation, negative = inhibition [1] is reported as inactive: 2.9e-05%.

With `O=P1(Nc2ccccn2)COc2ccccc2OC1` the activation, negative = inhibition [1] was inactive: 0.078%.

With `O=[As](O)(c1ccccc1Br)c1ccccc1Br` the activation, negative = inhibition [1] was inactive: -4.12%.

For `CN(C(=O)Cc1ccc(Cl)c(Cl)c1)[C@@H]1CCCC[C@H]1N1CCCC1`, the activation, negative = inhibition [1] was inactive: -2.39%.

For `CC(C)/C=N\N=C(\N)N[N+](=O)[O-]`, the activation, negative = inhibition [1] was inactive: -7.39%.

In the case of `COc1ccccc1CNC(=O)COC(=O)C(O)(c1ccccc1)c1ccccc1`, the activation, negative = inhibition [1] is reported as inactive: -0.541%.

For `O=C(/C=C/c1ccccc1)OC1CN2CCC1CC2` (centres undefined), the activation, negative = inhibition [1] was inactive: -0.494%.

For `CN(C)C1(CNC(=O)c2ccc(S(C)(=O)=O)cc2)CCCCC1`, the activation, negative = inhibition [1] was inactive: -3.48%.

With `Cc1ccc(C(=O)OC2CN3CCC2CC3)cc1` (centres undefined) the activation, negative = inhibition [1] was inactive: 0.0592%.

In the case of `CC1CCC(C(C)C)C(OP(=O)(Nc2ccccn2)c2ccccc2)C1` (centres undefined), the activation, negative = inhibition [1] is reported as inactive: -0.241%.

With `Cc1nn(-c2ccccc2)c2c1P(=O)(N1CCOCC1)N(C)C(c1ccccc1)=N2` (centres undefined) the activation, negative = inhibition [1] was inactive: -3.38%.

For `O=[As](O)(c1cccs1)c1cccs1`, the activation, negative = inhibition [1] was inactive: 7.11%.

For `Cc1ccc(OCC(=O)OC2CN3CCC2CC3)cc1` (centres undefined), the activation, negative = inhibition [1] was inactive: -6.14%.

In the case of `NS(=O)(=O)c1cccc(NC(=O)COC(=O)C(O)(c2ccccc2)c2ccccc2)c1`, the activation, negative = inhibition [1] is reported as inactive: -0.282%.

For `O=P1(Nc2ccc(Br)cn2)COc2ccccc2OC1`, the activation, negative = inhibition [1] was inactive: 6.53%.

In the case of `Nc1cccc([As](=O)(O)c2ccccc2)c1`, the activation, negative = inhibition [1] is reported as inactive: 0.833%.

For `O=P1(Nc2ncccn2)COc2ccccc2OC1`, the activation, negative = inhibition [1] was inactive: -1.36%.

For `O=C(O)COc1ccc([As](=O)(O)O)cc1[N+](=O)[O-]`, the activation, negative = inhibition [1] was inactive: 2%.

For `Nc1ccccc1[As](=O)(O)c1ccccc1`, the activation, negative = inhibition [1] was inactive: -1.66%.

With `CS(=O)(=O)c1cc([N+](=O)[O-])c2no[n+]([O-])c2c1` the activation, negative = inhibition [1] was inactive: 2.61%.

For `O=P(Nc1nccs1)(Oc1ccccc1)Oc1ccccc1`, the activation, negative = inhibition [1] was inactive: -0.792%.

With `O=P(Nc1nccs1)(c1ccccc1)c1nc2ccccc2s1` (centres undefined) the activation, negative = inhibition [1] was inactive: -1.3%.

With `CCOP1(=S)c2c(C)nn(CCC#N)c2N=C(c2ccccc2F)N1C` (centres undefined) the activation, negative = inhibition [1] was inactive: -4.18%.

For `O=[N+]([O-])c1ccc2c(c1)nnn2O`, the activation, negative = inhibition [1] was inactive: -2.55%.

For `CN(C(=O)Cc1ccccc1)[C@@H]1CC[C@]2(CCCO2)C[C@H]1N1CCCC1`, the activation, negative = inhibition (at 9.22 µM (top of the series)) was inactive: 0.18% and the activation, negative = inhibition (at 46.1 µM (top of the series)) was inactive: -14.8%.

With `CCOP1(=S)c2c(C)nn(CCC#N)c2N=C(c2ccc(F)cc2)N1C` (centres undefined) the activation, negative = inhibition [1] was inactive: -2.18%.

For `N#CCCN(C(=O)COC(=O)C(O)(c1ccccc1)c1ccccc1)c1ccc(F)cc1`, the activation, negative = inhibition [1] was inactive: 2.67%.

For `NC(=O)Nc1ccc([As](=O)(O)O)cc1`, the activation, negative = inhibition [1] was inactive: -2.84%.

For `O=[As](O)(c1cccc(O)c1)c1cccc(O)c1`, the activation, negative = inhibition [1] was inactive: -3.39%.

For `CS(=O)(=O)c1ccc(Cl)c(NC(=O)COC(=O)C(O)(c2ccccc2)c2ccccc2)c1`, the activation, negative = inhibition [1] was inactive: -4.46%.

For `O=[As](O)(O)c1cccnc1`, the activation, negative = inhibition [1] was inactive: -1.68%.

With `COc1cc(C(=O)NCC2(N3CCOCC3)CCCCC2)cc(Cl)c1OC(C)C` the activation, negative = inhibition [1] was inactive: -3.95%.

In the case of `CN(C(=O)Cc1ccc(Cl)c(Cl)c1)[C@@H]1CC[C@]2(CCCO2)C[C@H]1N1CCCC1`, the activation, negative = inhibition [1] is reported as inactive: -7.63% [at 46.1 µM].

For `O=C(OC1CN2CCC1CC2)c1ccc(Cl)cc1` (centres undefined), the activation, negative = inhibition [1] was inactive: -1.43%.

With `CCOP(=O)(Nc1cccc2ccccc12)OCC` the activation, negative = inhibition [1] was inactive: -1%.

For `COc1cc(C2NCCC3(OCCO3)C2(C)C)cc(OC)c1OC` (centres undefined), the activation, negative = inhibition [1] was inactive: 2.49%.

With `CCCOP(=S)(Nc1nc(N)cc(=O)[nH]1)OCCC` the activation, negative = inhibition [1] was inactive: -1.22%.

In the case of `Nc1cccc2c([As](=O)(O)O)cccc12`, the activation, negative = inhibition [1] is reported as inactive: -1.95%.

In the case of `Cc1ccc(NCCc2c([N+](=O)[O-])cc([N+](=O)[O-])cc2[N+](=O)[O-])cc1`, the activation, negative = inhibition [1] is reported as inactive: -2.31%.

— PubChem BioAssay AID485297 (National Center for Advancing Translational Sciences (NCATS), 2010)
